Yeast mating assay B: variants of the scFv Ab-14

Values reported by Li et al. 2023, doi:10.1038/s41467-023-39022-2 (FLAb copy).

The target is the same throughout: PDVDLGDISGINAS, from the HR2 region of SARS-CoV-2 spike.

The variants keep the light chain, the linker and the frameworks of Ab-14 (scFv order VH, a (GGGGS)3 linker, VL).
VH: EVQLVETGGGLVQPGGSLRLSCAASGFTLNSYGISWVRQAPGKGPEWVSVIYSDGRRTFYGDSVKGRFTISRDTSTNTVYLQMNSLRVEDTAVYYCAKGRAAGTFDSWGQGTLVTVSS
VL: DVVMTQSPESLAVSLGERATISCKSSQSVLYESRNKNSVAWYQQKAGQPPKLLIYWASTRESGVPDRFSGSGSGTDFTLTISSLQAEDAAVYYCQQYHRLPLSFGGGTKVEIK

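Phage display of a naive human antibody library on the peptide gave the parent. This is the validation round: designs drawn from the data on random variants, tested in the same kind of assay. Their group label is 14H_GPLM_Gen (GPLM: also part of the Gaussian process libraries; Gen: genetic algorithm; a sequence that several methods proposed may carry one label only). In AlphaSeq, yeast of one mating type display the scFv and yeast of the other type display the target. Mating (16 h, 30 °C) was followed by selection of diploids and sequencing of their barcodes. A regression on co-assayed BCL2-family reference pairs converts the normalised counts of each replicate to an apparent Kd. The assay was run in six technical replicates.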

The parent's heavy chain CDRs are GFTLNSYGIS, VIYSDGRRTFYGDSVK, GRAAGTFDS; each variant's own CDRs replace them letter for letter. Affinities are written as log10 Kd with Kd in nM; a lower number is a better binder. "n.d." marks a missing value. The strain was present, yet no cells mated with the target were sequenced in that replicate, which points to weak or no binding. In the paper, a design with two or fewer of six values counts as a poor binder. Background: pairings of all heavy chain designs with three empty control strains gave a value in 1% of cases (median 2.08, 5th percentile 0.84). Values in that range, when seen in few replicates, are hard to tell from nonspecific mating. Also given: how often the same scFv was detected with the empty control strains, with their mean in brackets. Values of this round are not directly comparable with the first-round values of the same sequences.

{"CDR-H1": "GFKLNSYGIS", "CDR-H2": "VIYSDGRRTFYIDSVK", "CDR-H3": "GKAAGTFDS", "replicates, log10 nM": "n.d. n.d. -0.31 0.38 0.70 n.d.", "empty controls": "0/18"}
{"CDR-H1": "GFSLNSYGIS", "CDR-H2": "VIYSDGRRTFYADSVK", "CDR-H3": "GRVAGTFDT", "replicates, log10 nM": "0.29 1.26 -0.25 0.31 0.24 0.41", "empty controls": "0/18"}
{"CDR-H1": "GFSLNSYGIS", "CDR-H2": "VIYSDGRRTFYGDSVK", "CDR-H3": "GEAAGTFDF", "replicates, log10 nM": "0.43 0.35 -0.20 -0.30 0.43 0.65", "empty controls": "0/18"}
{"CDR-H1": "GFSLNSYGIS", "CDR-H2": "VIYSDGKRTFYADNVK", "CDR-H3": "GQAAGTFDS", "replicates, log10 nM": "1.02 1.52 1.30 0.43 0.92 1.79", "empty controls": "0/18"}
{"CDR-H1": "GFSLNSYGIS", "CDR-H2": "VIYSDGRRTFYVDSVK", "CDR-H3": "GRTAGTFDQ", "replicates, log10 nM": "n.d. n.d. 0.22 0.99 n.d. -0.63", "empty controls": "0/18"}
{"CDR-H1": "GFSLNEYGIS", "CDR-H2": "VIYSDGRRTFYSDSVK", "CDR-H3": "GRSAGTFDS", "replicates, log10 nM": "-0.24 -0.55 -0.22 -0.24 -0.33 -0.07", "empty controls": "1/18 (2.22)"}
{"CDR-H1": "GFELNSYGIS", "CDR-H2": "VIYSDGRRTFYQDSVK", "CDR-H3": "GQAAGTFDS", "replicates, log10 nM": "n.d. 2.86 n.d. n.d. n.d. 2.62", "empty controls": "1/18 (2.74)"}
{"CDR-H1": "SFTLNSYGIS", "CDR-H2": "VIYSDGRRTFYSDSVK", "CDR-H3": "GEAAGTFDS", "replicates, log10 nM": "n.d. 0.99 n.d. n.d. n.d. n.d.", "empty controls": "0/18"}
{"CDR-H1": "GFSLNDYGIS", "CDR-H2": "VIYSDGRRTFYGDSVK", "CDR-H3": "GREAGTFDT", "replicates, log10 nM": "-0.47 0.02 -0.34 -0.67 -0.58 -0.09", "empty controls": "0/18"}
{"CDR-H1": "GFSLNDYGIS", "CDR-H2": "VIYSDGRRTFYGDSVK", "CDR-H3": "GRTAGTFDK", "replicates, log10 nM": "0.51 0.53 0.25 0.08 0.28 0.35", "empty controls": "0/18"}
{"CDR-H1": "GFTLNSYGIS", "CDR-H2": "VIYSDGRRTFYADSVK", "CDR-H3": "GHVAGTFDS", "replicates, log10 nM": "1.13 0.41 0.51 0.87 0.90 0.67", "empty controls": "0/18"}
{"CDR-H1": "GFSLNEYGIS", "CDR-H2": "VIYSDGRRTFYGDSVK", "CDR-H3": "GKAAGTFDM", "replicates, log10 nM": "0.17 -0.29 -0.31 -0.67 -0.02 0.19", "empty controls": "1/18 (0.81)"}
{"CDR-H1": "GFSLNSYGIS", "CDR-H2": "VIYSDGRRTFYDDSVK", "CDR-H3": "GRVAGTFDS", "replicates, log10 nM": "0.26 0.21 0.28 0.08 -0.13 0.71", "empty controls": "1/18 (4.03)"}
{"CDR-H1": "GFDLNSYGIS", "CDR-H2": "VIYSDGRRTFYADSVK", "CDR-H3": "GQAAGTFDL", "replicates, log10 nM": "0.60 0.34 0.19 -0.10 -0.02 -0.15", "empty controls": "0/18"}
{"CDR-H1": "GFLLNDYGIS", "CDR-H2": "VIYSDGRRTFYADSVK", "CDR-H3": "GRAAGTFDS", "replicates, log10 nM": "n.d. -0.20 -0.06 0.37 n.d. 0.20", "empty controls": "0/18"}
{"CDR-H1": "GFVLNSYGIS", "CDR-H2": "VIYADGRRTFYGDSVK", "CDR-H3": "GKAAGTFDS", "replicates, log10 nM": "0.67 2.07 0.71 n.d. 1.78 1.40", "empty controls": "0/18"}
{"CDR-H1": "GFSLNSYGIS", "CDR-H2": "VIYSDGRRTFYTDSVK", "CDR-H3": "GQAAGTFDL", "replicates, log10 nM": "0.57 0.24 -0.34 0.08 -0.37 0.59", "empty controls": "0/18"}
{"CDR-H1": "GFQLNSYGIS", "CDR-H2": "VIYADGRRTFYGDSVK", "CDR-H3": "GQAAGTFDS", "replicates, log10 nM": "0.75 0.74 0.39 0.42 0.68 0.47", "empty controls": "0/18"}
{"CDR-H1": "GFTLNSYGIS", "CDR-H2": "VIYSDGRRTFYADSVK", "CDR-H3": "GRSAGTFDS", "replicates, log10 nM": "1.21 1.12 1.30 1.36 0.54 0.85", "empty controls": "0/18"}
{"CDR-H1": "GFNLNSYGIS", "CDR-H2": "VIYSDGRRTFYADMVK", "CDR-H3": "GQAAGTFDS", "replicates, log10 nM": "1.22 n.d. n.d. n.d. n.d. 0.97", "empty controls": "0/18"}
{"CDR-H1": "GFTLNSYGIS", "CDR-H2": "VIYADGRRTFYGDSVK", "CDR-H3": "GQAAGTFDR", "replicates, log10 nM": "0.60 0.29 1.17 0.80 1.21 1.62", "empty controls": "0/18"}
{"CDR-H1": "GFSLNEYGIS", "CDR-H2": "VIYSDGRRTFYGNSVK", "CDR-H3": "GRAAGTFDS", "replicates, log10 nM": "0.38 0.31 0.24 0.04 0.18 0.41", "empty controls": "2/18 (3.55)"}